# Tests used:
# Sequences of proteins named here, by UniProt entry; tags and fusion partners are left off.
# UniProt P31652, whole entry: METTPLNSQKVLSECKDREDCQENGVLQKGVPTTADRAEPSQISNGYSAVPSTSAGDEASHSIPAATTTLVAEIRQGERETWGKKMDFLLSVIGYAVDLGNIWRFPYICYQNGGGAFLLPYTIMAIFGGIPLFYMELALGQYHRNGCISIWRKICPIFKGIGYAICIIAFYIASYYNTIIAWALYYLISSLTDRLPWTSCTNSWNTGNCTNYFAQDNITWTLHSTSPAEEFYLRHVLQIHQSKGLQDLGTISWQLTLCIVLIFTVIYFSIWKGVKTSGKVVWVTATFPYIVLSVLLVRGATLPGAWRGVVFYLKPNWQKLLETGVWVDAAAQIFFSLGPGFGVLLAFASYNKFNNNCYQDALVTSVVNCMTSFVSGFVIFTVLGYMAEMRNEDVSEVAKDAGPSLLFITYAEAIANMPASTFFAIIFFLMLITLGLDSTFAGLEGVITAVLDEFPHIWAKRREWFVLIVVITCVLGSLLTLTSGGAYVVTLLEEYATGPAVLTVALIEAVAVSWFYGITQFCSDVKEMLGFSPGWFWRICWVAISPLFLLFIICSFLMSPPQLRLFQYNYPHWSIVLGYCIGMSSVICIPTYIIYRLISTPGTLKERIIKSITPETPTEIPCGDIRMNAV
# [1] = target: T1, rSERT (Rattus norvegicus, UniProt P31652); assay: PAL of 17 in living T-REx-SERT cells followed by CuAAC rhodamine labelling, with competitor; type: cell-based; conditions: 17 10 μM, equimolar paroxetine (10μM)
# T1 construct: expressed in transfected cells; host or cells: T-REx-SERT cells (T-REx 293 based, tetracycline-inducible), gift of C.G. Tate
# [2] = target: T1, rSERT; assay: Radioligand binding assay (RBA), competition with [3H]-citalopram, membranes of T-REx-SERT cells
# [3] = target: T1, rSERT; assay: PAL and CuAAC fluorescence assay of 17 on rSERT-enriched material immobilized on ANTI-FLAG M2 affinity gel, with competitors; type: binding; conditions: 17 1 μM; competitor 1 mM (1000 fold molar excess); PAL then CuAAC rhodamine fluorescence
structure (smiles),measurement,setting,value
"Fc1ccc([C@@H]2CCNC[C@H]2COc2ccc3c(c2)OCO3)cc1 [Paroxetine, paroxetine, reference compound]",decrease of fluorescent signal of 17-rSERT by competitor in living cells,[1],60–70%
same,IC50,[2],0.0955 nM
same,Ki,[2],0.07 nM
same,decrease in binding signal of 17 at enriched rSERT by competitor,[3],60%
